Read-outs that look alike come from different tables or passages of the source.
Tests used:
[1] = tested on: ARPE-19 cells; conditions: concentrations of 0.1 mg/mL or lower; viability test on day 3
[2] = tested on: New Zealand White (NZW) Rabbits; conditions: Day 1 and Day 8, eyes enucleated day 14
[3] = biological target: monoclonal antibody products; conditions: binding to monoclonal antibody products; read-out: dissociation constant (KD)

Substance	cytotoxicity (percentage survival versus growth media only) [1]	inflammatory infiltrate in cornea, anterior chamber, angle, vitreous/retina (H&E histopathology) ([2]; 0.31 mg/eye intravitreal)	Kd [3]	inflammatory infiltrate in cornea, anterior chamber, angle, vitreous/retina (H&E histopathology) ([2]; 0.35 mg/eye intravitreal)
Protein A	low cytotoxicity	significant inflammatory infiltrate		
Z domain [SEQ ID NO: 3]			< 10 nM	significant inflammatory infiltrate
